## Measured affinities in a library of Ab-91 heavy chain variants

Source: Engelhart et al. 2022 (doi:10.1038/s41597-022-01779-4), MIT Lincoln Laboratory and A-Alpha Bio; data file from the FLAb repository.

Target: peptide PDVDLGDISGINAS, taken from heptad repeat 2 (HR2) of SARS-CoV-2 spike.

The variants keep the light chain, the linker and the frameworks of Ab-91 (scFv order VL, a (GGGGS)3 linker, VH).
VL: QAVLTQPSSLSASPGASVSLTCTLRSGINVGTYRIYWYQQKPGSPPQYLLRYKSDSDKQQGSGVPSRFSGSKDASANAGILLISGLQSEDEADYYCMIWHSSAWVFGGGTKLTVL
VH: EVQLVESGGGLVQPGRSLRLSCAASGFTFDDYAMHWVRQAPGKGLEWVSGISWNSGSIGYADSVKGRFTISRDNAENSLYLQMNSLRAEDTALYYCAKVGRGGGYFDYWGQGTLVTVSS

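The starting antibody came from a phage panning campaign against this peptide. The library (AAYL51) carries one to three amino acid substitutions per variant, with no insertions or deletions. AlphaSeq pools MATa yeast showing the antibodies with MATalpha yeast showing the peptide. Binding brings cells together so that they mate, and sequencing counts the barcode pairs among the diploids. Read counts were normalised to the haploid input and turned into Kd by a linear fit to BCL2-family pairs of known affinity, for each replicate. The assay was run in three technical replicates.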

Substitutions are numbered in sequence along the VH above, starting at 1 (not Kabat).
This list gathers variants with a substitution at G56 (VH, numbered from residue 1).
Numbers give log10(Kd / nM), so 0 is 1 nM and 3 is 1 µM. Smaller is tighter.
Averages over replicates are reported, and they cover detected replicates only.
"nd" means that the variant was in the library but no mating with the target was seen in any replicate; the authors take this as a sign of poor binding, and no number exists.
Nonspecific signal, from three strains lacking the peptide, appeared in 21% of pairings of library AAYL51, centred on 4.54 (5% of these signals below 3.26); values are not corrected for it.

| changes | mean, log10 nM | seen in |
|---|---|---|
| Y32V+A33R+G56H | 6.00 | 2 of 3 |
| H35W+S52H+G56M | nd | 0 of 3 |
| G56Q+G104V+Y108S | nd | 0 of 3 |
| F29K+G56P+D107I | nd | 0 of 3 |
| G26K+G56L+D107T | nd | 0 of 3 |
| F29Q+G56L+Y108I | nd | 0 of 3 |